Laboratory results as given in patent US8536172B2, “Inhibitors of JNK” (Roche Palo Alto LLC, priority 2009, dated 2013).

Protein sequences, listed by entry. Tags and fused reporters are not part of them. Lines headed by an entry give the natural chain unless they say otherwise; changes in a name come on top. Chains listed by the source or under a name are the forms on record and can include a tag or linker.
UniProt P45983, other isoform, or with tags, fused parts or gaps: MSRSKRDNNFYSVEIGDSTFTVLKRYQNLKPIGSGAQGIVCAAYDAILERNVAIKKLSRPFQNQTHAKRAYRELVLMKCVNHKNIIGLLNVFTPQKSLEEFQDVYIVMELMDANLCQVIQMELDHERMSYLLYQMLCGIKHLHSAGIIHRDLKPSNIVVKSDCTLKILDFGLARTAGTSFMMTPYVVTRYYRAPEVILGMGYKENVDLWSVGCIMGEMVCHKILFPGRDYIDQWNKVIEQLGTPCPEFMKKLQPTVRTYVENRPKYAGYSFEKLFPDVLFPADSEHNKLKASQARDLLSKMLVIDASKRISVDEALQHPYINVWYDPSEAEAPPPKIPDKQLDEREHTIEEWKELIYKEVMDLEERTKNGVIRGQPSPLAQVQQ
UniProt P45984: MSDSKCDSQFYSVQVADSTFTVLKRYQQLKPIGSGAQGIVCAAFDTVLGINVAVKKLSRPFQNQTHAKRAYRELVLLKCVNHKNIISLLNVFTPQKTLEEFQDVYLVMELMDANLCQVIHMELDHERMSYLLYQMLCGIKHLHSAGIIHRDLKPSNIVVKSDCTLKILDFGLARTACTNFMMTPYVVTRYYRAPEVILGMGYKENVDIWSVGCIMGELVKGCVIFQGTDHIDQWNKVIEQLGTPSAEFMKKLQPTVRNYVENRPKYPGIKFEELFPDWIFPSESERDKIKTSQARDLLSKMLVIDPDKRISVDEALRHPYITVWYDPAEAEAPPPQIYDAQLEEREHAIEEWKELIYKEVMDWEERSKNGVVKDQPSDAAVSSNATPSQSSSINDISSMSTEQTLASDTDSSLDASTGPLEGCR

How the values were obtained:
Human JNK1α1 = Human JNK1α1 (Homo sapiens (Human), UniProt P45983); assay: JNK assay in vitro: phosphorylation of GST-ATF2 (19-96) with [γ-33P] ATP, JNK1; type: biochemical; details: 2 nM enzyme, 1 μM ATF2, 6 μM ATP (Km), 30° C. 30 min
Protocol: JNK activity was measured by phosphorylation of GST-ATF2 (19-96) with [γ-^33P] ATP. […] Human JNK2α2 assay contains 1 nM enzyme, 1 μM ATF2, 8 μM ATP with 1 uCi [γ-^33P] ATP. Human JNK1α1 assay contains 2 nM enzyme, 1 μM ATF2, 6 μM ATP with 1 μCi [γ-^33P] ATP. […] ATP. The enzyme assay was carried out in the presence or absence of several compound concentrations. JNK and compound were pre-incubated for 10 min., followed by initiation of the enzymatic reaction by adding ATP and the substrate. The reaction mixture was incubated at 30° C. for 30 min. […] The incorporation of ^33P into ATF2 was quantified on a microplate scintillation counter (Packard Topcount). Compound inhibition potency on JNK was measured by IC50 value generated from ten concentration inhibition curves fitted into the 3-parameter model: % inhibition=Maximum/(1+(IC50/[Inhibitor])^slope). Data were analyzed on Microsoft Excel for parameter estimation.

Human JNK2α2 = Human JNK2α2 (Homo sapiens (Human), UniProt P45984); assay: JNK assay in vitro: phosphorylation of GST-ATF2 (19-96) with [γ-33P] ATP, JNK2; type: biochemical; details: 1 nM enzyme, 1 μM ATF2, 8 μM ATP (Km), 30° C. 30 min
Protocol: JNK activity was measured by phosphorylation of GST-ATF2 (19-96) with [γ-^33P] ATP. […] Human JNK2α2 assay contains 1 nM enzyme, 1 μM ATF2, 8 μM ATP with 1 uCi [γ-^33P] ATP. Human JNK1α1 assay contains 2 nM enzyme, 1 μM ATF2, 6 μM ATP with 1 μCi [γ-^33P] ATP. Human JNK3 (Upstate Biotech #14-501M) assay contains 2 nM enzyme, 1 μM ATF2, 4 μM ATP with 1 μCi [γ-^33P] ATP. The enzyme assay was carried out in the presence or absence of several compound concentrations. JNK and compound were pre-incubated for 10 min., followed by initiation of the enzymatic reaction by adding ATP and the substrate. The reaction mixture was incubated at 30° C. for 30 min. At the end of incubation, the reaction was terminated by transferring 25 μl of the reaction mixture to 150 μl of 10% glutathione Sepharose® slurry (Amersham #27-4574-01) containing 135 mM EDTA. The reaction product was captured on the affinity resin, and washed on a filtration plate (Millipore, MABVNOB50) with phosphate buffered saline for six times to remove free radionucleotide. The incorporation of ^33P into ATF2 was quantified on a microplate scintillation counter (Packard Topcount). Compound inhibition potency on JNK was measured by IC50 value generated from ten concentration inhibition curves fitted into the 3-parameter model: % inhibition=Maximum/(1+(IC50/[Inhibitor])^slope). Data were analyzed on Microsoft Excel for parameter estimation.

Row | Compound | IC50 (Human JNK1α1) | IC50 (Human JNK2α2)
1 | CS(=O)(=O)C1CCN(c2cccc3c2ccn3-c2ccnc(N[C@H]3CC[C@H](O)CC3)n2)CC1 [Compound I-12, 4-{4-[4-(4-Methanesulfonyl-piperidin-1-yl)-indol-1-yl]-pyrimidin-2-ylamino}-cyclohexanol] | 3.1 nM | 17.9 nM
2 | CS(=O)(=O)C1CCN(c2cccc3c2ccn3-c2ccnc(N[C@H]3CC[C@](C)(O)CC3)n2)CC1 [Compound I-16, 4-{4-[4-(4-Methanesulfonyl-piperidin-1-yl)-indol-1-yl]-pyrimidin-2-ylamino}-1-methyl-cyclohexanol] |  | 66 nM
3 | CS(=O)(=O)C1CCN(c2cccc3c2ccn3-c2ccnc(N[C@H]3CC[C@@](C)(O)CC3)n2)CC1 [Compound I-17, 4-{4-[4-(4-Methanesulfonyl-piperidin-1-yl)-indol-1-yl]-pyrimidin-2-ylamino}-1-methyl-cyclohexanol] | 8.5 nM | 47.7 nM
4 | CCNC(=O)[C@H]1CC[C@H](Nc2nccc(-n3ccc4c(N5CCC(S(C)(=O)=O)CC5)cccc43)n2)CC1 [Compound I-19, 4-{4-[4-(4-Methanesulfonyl-piperidin-1-yl)-indol-1-yl]-pyrimidin-2-ylamino}-cyclohexanecarboxylic acid ethylamide] | 6.1 nM | 32.8 nM
5 | CS(=O)(=O)C1CCN(c2cccc3c2ccn3-c2ccnc(N[C@H]3CC[C@@H](O)CC3)n2)CC1 [Compound I-62, 4-{4-[4-(4-Methanesulfonyl-piperidin-1-yl)-indol-1-yl]-pyrimidin-2-ylamino}-cyclohexanol] |  | 145 nM
